Experimental data: PubChem BioAssay AID1347072 (National Center for Advancing Translational Sciences (NCATS), 2019)
Only a part is listed here, and it is no random draw. Some of these compounds have results that are not shown, active ones among them. Calls of active or inactive are those of the source. The call rests on the fitted dose curve; in most records, active means well fitted curve in the direction sought with a large enough effect; inconclusive means small, poorly fitted or top-dose-only effect, or another doubt; inactive means no such curve, though single readings can be large or run the other way.

Protein sequences, listed by entry. Tags and fused reporters are not part of them.
UniProt P51570, whole entry: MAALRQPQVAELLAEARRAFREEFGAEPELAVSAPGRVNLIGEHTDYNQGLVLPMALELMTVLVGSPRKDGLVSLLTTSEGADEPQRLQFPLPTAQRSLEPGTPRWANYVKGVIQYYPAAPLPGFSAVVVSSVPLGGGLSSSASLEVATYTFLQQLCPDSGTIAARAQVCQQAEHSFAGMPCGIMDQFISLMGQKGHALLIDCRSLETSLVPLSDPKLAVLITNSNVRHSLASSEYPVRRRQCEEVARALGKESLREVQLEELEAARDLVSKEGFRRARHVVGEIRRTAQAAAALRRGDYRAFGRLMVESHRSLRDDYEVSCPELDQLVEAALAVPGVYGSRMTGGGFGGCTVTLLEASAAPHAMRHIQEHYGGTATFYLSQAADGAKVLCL

target: Galactokinase (Homo sapiens) (UniProt P51570); experiment: qHTS Assay for Inhibitors of Human Galactokinase (GALK): NCGC Sytravon Library Screen; settings: recombinant GALK, Kinase-Glo ATP luminescence, 1 h; at 57.5 µM (top of the series);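 further: plate controls were full GALK reaction for no effect and reaction lacking GALK for full effect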
Source text: Inherited deficiency of galactose-1-phosphate uridyltransferase (GALT) can result in a potentially lethal disorder called Classic Galactosemia (OMIM 230400). Several lines of evidence indicate that an elevated level of galactose-1-phosphate (gal-1-p), the product of galactokinase (GALK), is a major, if not sole, pathogenic mechanism in patients with classic galactosemia. Therefore, finding inhibitors of GALK is a potential novel therapy for this inherent metabolic disease and is the long term goal of this project. This screen is run against the NCGC Sytravon compound library collection. GALK (provided by Kent Lai) was assayed using ATP and D-(+)-Galactose (Sigma-Aldrich cat# G0750) as substrates. Promega Kinase-Glo Plus technology was used to detect kinase activity. Reactions with and without GALK were used as negative and positive controls together with Protein Tyrosine Phosphatase CD45 inhibitor (EMD Bioscience cat# 540215) which is shown to inhibit GALK activity. Decrease in activity corresponds to inhibition of the enzyme is the desired outcome for this assay. NIH Molecular Libraries Probe Production Network [MLPCN] NIH Chemical Genomics Center [NCGC] Grant: R03 MH085689-01 PI Name: Kent Lai Ph.D., University of Utah
NCGC Assay Protocol Summary: Three uL/well of ATP-buffer solution (35 uM ATP, 20mM HEPES pH8.0, 5 mM MgCl2, 60 mM NaCl, 1 mM DTT, 0.01% BSA final concentration) was dispensed into 1536-well, assay plates (Greiner, solid white medium-binding plates) with Aurora Discovery BioRAPTR Flying Reagent Dispenser (FRD; Beckton-Dickenson). Compound solution (23 nL) was transferred to the assay plate using the Kalypsys 1536-pin tool. One uL/well GALK-galactose solution (5 nM GALK, 100 uM galactose, 20 mM HEPES pH8.0, 5 mM MgCl2, 60 mM NaCl, 1 mM DTT, 0.01% BSA final concentration) was then added using the FRD yielding a total kinase reaction volume of 4 uL/ well. After 1 hour of room temperature incubation, 4 uL Kinase-Glo Plus reagent was added for a final assay volume of 8 uL/ well. Luminescence was detected with the ViewLux plate reader (Perkin Elmer, Waltham, MA) after 10 min incubation using a 1 sec exposure time and 2x binning.

| SMILES | activity, negative = inhibition |
| --- | --- |
| CN(C)C1(CNC(=O)c2ccccc2F)CCCCC1 | inactive: 6.85% |
| CN(C)C1(CNC(=O)c2cccc(Cl)c2)CCCCC1 | inactive: -6.23% |
| CCCCOc1ccccc1C(=O)NCC1(N(C)C)CCCCC1 | inactive: 1.59% |
| CN(C)C1(CNC(=O)c2ccccc2[N+](=O)[O-])CCCCC1 | inactive: 3.08% |
| COc1ccc(C(=O)NCC2(N(C)C)CCCCC2)cc1Cl | inactive: 2.37% |
| CC(C)Oc1ccc(C(=O)NCC2(N(C)C)CCCCC2)cc1 | inactive: 0% |
| COc1cc(C(=O)NCC2(N(C)C)CCCCC2)cc(OC)c1OC | inactive: -4.19% |
| Cc1cccc(C(=O)NCC2(N(C)C)CCCCC2)c1 | inactive: 0% |
| CC(C)COc1ccc(C(=O)NCC2(N(C)C)CCCCC2)cc1 | inactive: -2.13% |
| COc1cccc(C(=O)NCC2(N3CCOCC3)CCCCC2)c1 | inactive: 0.505% |
